Measured values from ChEMBL document CHEMBL3352497, “Design and optimization of novel 4-(2-fluorophenoxy)quinoline derivatives bearing a hydrazone moiety as c-Met kinase inhibitors” (Eur J Med Chem, 2014).

What was measured:
Homo sapiens [1] = organism: Homo sapiens; assay: Selectivity index, ratio of IC50 for KDR (unknown origin) to IC50 for c-Met (unknown origin)
Homo sapiens [2] = organism: Homo sapiens; assay: Selectivity index, ratio of IC50 for FLT3 (unknown origin) to IC50 for c-Met (unknown origin)

COc1cc2c(Oc3ccc(CC(=O)N/N=C/c4ccc(C(F)(F)F)cc4)cc3F)ccnc2cc1OCCCN1CCCC1
Ratio IC50 (Homo sapiens [1]): 301
Ratio IC50 (Homo sapiens [2]): 210
